Values quoted from earlier work, collected in patent publication US20120134978A1, “Cross-Linking of Superoxide Dismutase Monomers” (Brandeis University, priority 2009, published 2012).

Test system: Amyotrophic Lateral Sclerosis patients
Conditions: ALS patients; cited from earlier work

## Nc1nc2ccc(OC(F)(F)F)cc2s1 [Riluzole]
  effect on patient survival and quality of life: moderate effect on patient survival and quality of life
